pIC50, pKd: −log10 of the molar value. Like-named read-outs stand apart in the source and are kept apart here.
Key:
[1] = biological target: HRAS wild-type protein (Homo sapiens, UniProt P01112); assay: Binding to HRAS by surface plasmon resonance (SPR), KD and KD ratio to KRAS
[2] = tested on: human lung cancer strain NCI-H441; assay: NCI-H441 cell proliferation inhibitory activity (CellTiter-Glo, 4 days); assay type: cell-based
[3] = biological target: GDP-bound KRAS wild-type protein (Homo sapiens, UniProt P01116); assay: Binding to KRAS by surface plasmon resonance (SPR), dissociation constant KD
[4] = biological target: GDP-bound NRAS wild-type protein (Homo sapiens, UniProt P01111); assay: Binding to NRAS by surface plasmon resonance (SPR), KD and KD ratio to KRAS
[5] = ratio of KD with respect to HRAS wild-type protein to KD with respect to KRAS
[6] = read-out: NCl-H441 IC50, 50% proliferation inhibitory concentration, four days
[7] = read-out: KRAS KD, Single Cycle Kinetics, 1:1 binding model
[8] = ratio of KD with respect to GDP-bound NRAS wild-type protein to KD with respect to KRAS
[9] = ratio of KD for HRAS wild-type protein to KD for KRAS
[10] = ratio of KD for GDP-bound NRAS wild-type protein to KD for KRAS

Chains of the proteins cited; added tags and fusions are not shown. Residues count along the entry.
UniProt P01112, whole entry: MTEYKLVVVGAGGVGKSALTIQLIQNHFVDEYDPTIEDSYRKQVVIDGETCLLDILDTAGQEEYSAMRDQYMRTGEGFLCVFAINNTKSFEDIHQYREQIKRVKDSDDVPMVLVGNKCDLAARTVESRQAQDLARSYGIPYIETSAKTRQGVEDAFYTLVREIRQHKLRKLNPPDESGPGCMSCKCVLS
UniProt P01116, 1-188 isoform 2: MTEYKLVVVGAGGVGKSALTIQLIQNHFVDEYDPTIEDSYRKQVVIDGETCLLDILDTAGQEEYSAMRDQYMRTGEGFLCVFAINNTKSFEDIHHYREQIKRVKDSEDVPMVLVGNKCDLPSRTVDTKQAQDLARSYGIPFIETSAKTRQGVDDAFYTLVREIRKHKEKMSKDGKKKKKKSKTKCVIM
UniProt P01111, whole entry: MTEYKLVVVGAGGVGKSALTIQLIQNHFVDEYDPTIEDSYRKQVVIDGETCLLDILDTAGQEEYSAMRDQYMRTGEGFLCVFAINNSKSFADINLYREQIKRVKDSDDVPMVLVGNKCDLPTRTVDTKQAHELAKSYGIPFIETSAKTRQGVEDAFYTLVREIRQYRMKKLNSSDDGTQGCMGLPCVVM

Row | SMILES | pKd [3, 7] | HRAS /KRAS [1, 5] | NRAS /KRAS [4, 8] | also measured
1 | CCOC1CC2C(=O)NC3(CCC3)C(=O)N(C)C(C3CCCC3)C(=O)N(C)C(C(=O)N3CCOCC3)CC(=O)N(C)C(Cc3cccc(C#N)c3)C(=O)NC(C(C)CC)C(=O)N(C)CC(=O)N(C)C3CCCCCN(C3=O)C(Cc3ccc(C(F)(F)F)cc3)C(=O)N(C)CC(=O)NC(CCc3cc(F)c(C(F)(F)F)c(F)c3)C(=O)N2C1 (centres unmarked) | 9.30 | B (a compound having 3 or more and less than 10 is denoted as B) | B (a compound having 3 or more and less than 10 is denoted as B) | pIC50 [2, 6]: 6.90
2 | CC[C@H](C)[C@@H]1NC(=O)[C@H](CC(C)C)N(C)C(=O)C[C@@H](C(=O)N(C)C)N(C)C(=O)[C@H](C2CCCC2)N(C)C(=O)C2(CCCC2)NC(=O)[C@@H]2CCCN2C(=O)[C@H](CCc2ccc(C(F)(F)F)c(Cl)c2)NC(=O)CN(C)C(=O)[C@H](Cc2ccc(C(F)(F)F)cc2)N2CC/C=C(/C)C[C@@H](C2=O)N(C)C(=O)CN(C)C1=O | – | – | – | HRAS /KRAS ([1]; ratio of the KD value with respect to HRAS wild-type protein to the KD value with respect to KRAS): B (a compound having 3 or more and less than 10 is denoted as B); NRAS /KRAS ([4]; ratio of the KD value with respect to GDP-bound NRAS wild-type protein to the KD value with respect to KRAS): B (a compound having 3 or more and less than 10 is denoted as B)
3 | CC[C@H](C)[C@@H]1NC(=O)[C@H](CC)N(C)C(=O)C[C@@H](C(=O)N(C)C)N(C)C(=O)[C@H](C2CCCC2)N(C)C(=O)C2(CCCC2)NC(=O)[C@@H]2CCCN2C(=O)[C@H](CCc2cc(F)c(C(F)(F)F)c(F)c2)NC(=O)CN(C)C(=O)[C@H](Cc2ccc(C(F)(F)F)cc2)N2CC(C)[C@@H](C)C[C@@H](C2=O)N(C)C(=O)CN(C)C1=O (some centres unmarked) | 10.05 | B (a compound having 3 or more and less than 10 is denoted as B) | – | –
4 | CCCCO[C@@H]1C[C@H]2C(=O)NC3(CCC3)C(=O)N(C)[C@@H](C3CCCC3)C(=O)N(C)[C@H](C(=O)N3CCOCC3)CC(=O)N(C)[C@@H](CC(C)C)C(=O)N[C@@H]([C@@H](C)CC)C(=O)N(C)CC(=O)N(C)[C@H]3CCCCN(C3=O)[C@@H](Cc3ccc(C(F)(F)F)cc3)C(=O)N(C)CC(=O)N[C@@H](CCc3cc(F)c(C(F)(F)F)c(F)c3)C(=O)N2C1 | – | – | – | HRAS /KRAS [1, 9]: B (a compound having 3 or more and less than 10 is denoted as B); pIC50 ([2]; read-out: NCl-H441 IC50, NCI-H441 cells, four days): 8.12; NRAS /KRAS [4, 10]: C (A compound having a KD ratio of 0.1 or more and less than 3 is denoted as C)
5 | CCC[C@H]1C(=O)N[C@H]([C@@H](C)CC)C(=O)N2C[C@@H](OC)C[C@H]2C(=O)N(C)[C@H]2C/C=C\CCN(C2=O)[C@@H](Cc2ccc(C)cc2)C(=O)N(C)CC(=O)N[C@@H](CCc2ccc(C(F)(F)F)c(OC)c2)C(=O)N2C[C@H](OCC)C[C@H]2C(=O)NC2(CCC2)C(=O)N(C)[C@@H](C2CCCC2)C(=O)N(C)[C@H](C(=O)N(C)C)CC(=O)N1C | – | – | – | HRAS /KRAS [1, 9]: B (a compound having 3 or more and less than 10 is denoted as B); pKd ([3]; read-out: KRAS KD, 1:1 binding model): 9.40; NRAS /KRAS [4, 10]: A (a compound having 10 or more and less than 20 is denoted as A)

More lines, main results first:

Row | pKd [3, 7] | SMILES | HRAS /KRAS [1, 5] | NRAS /KRAS [4, 8] | also measured
6 | 9.72 | CCOC1CC2C(=O)NC3(CCC3)C(=O)N(C)C(C3CCCC3)C(=O)N(C)C(C(=O)N(C)C)CC(=O)N(C)C(Cc3ccsc3)C(=O)NC(C(C)CC)C(=O)N(C)CC(=O)N(C)C3CCCCCN(C3=O)C(Cc3ccc(F)cc3)C(=O)N(C)CC(=O)NC(CCc3cc(F)c(C(F)(F)F)c(F)c3)C(=O)N2C1 (centres unmarked) | B (a compound having 3 or more and less than 10 is denoted as B) | B (a compound having 3 or more and less than 10 is denoted as B) | –
7 | 9.22 | CCCO[C@@H]1C[C@H]2C(=O)NC3(CCC3)C(=O)N(C)[C@@H](C3CCCC3)C(=O)N(C)[C@H](C(=O)N3CCOCC3)CC(=O)N(C)[C@@H](CC(C)C)C(=O)N[C@@H]([C@@H](C)CC)C(=O)N(C)CC(=O)N(C)[C@H]3CCCCCN(C3=O)[C@@H](Cc3ccc(C(F)(F)F)cc3)C(=O)N(C)CC(=O)N[C@@H](CCc3cc(F)c(C(F)(F)F)c(F)c3)C(=O)N2C1 | B (a compound having 3 or more and less than 10 is denoted as B) | – | pIC50 [2, 6]: 6.81
8 | 9.64 | CCOC1CC2C(=O)NC3(CCC3)C(=O)N(C)C(C3CCCC3)C(=O)N(C)C(C(=O)N(C)C)CC(=O)N(C)C(Cc3ccsc3)C(=O)NC(C(C)CC)C(=O)N(C)CC(=O)N(C)C3CCCCCN(C3=O)C(Cc3ccc(C(F)(F)F)cc3)C(=O)N(C)CC(=O)NC(CCc3cc(F)c(C(F)(F)F)c(F)c3)C(=O)N2C1 (centres unmarked) | B (a compound having 3 or more and less than 10 is denoted as B) | B (a compound having 3 or more and less than 10 is denoted as B) | –
9 | 9.10 | CC[C@H](C)[C@@H]1NC(=O)[C@H](CC(C)C)N(C)C(=O)C[C@@H](C(=O)N2CCOCC2)N(C)C(=O)[C@H](C2CCCC2)N(C)C(=O)C2(CCC2)NC(=O)[C@@H]2CCCN2C(=O)[C@H](CCc2cc(F)c(C(F)(F)F)c(F)c2)NC(=O)CN(C)C(=O)[C@H](Cc2ccc(C(F)(F)F)cc2)N2C[C@H](C)CC[C@@H](C2=O)N(C)C(=O)[C@@H]2CCN2C1=O | B (a compound having 3 or more and less than 10 is denoted as B) | B (a compound having 3 or more and less than 10 is denoted as B) | –

From patent EP4603105A1, “PHARMACEUTICAL COMPOSITION CONTAINING CYCLIC COMPOUND HAVING SELECTIVE KRAS INHIBITORY EFFECT AGAINST HRAS AND NRAS” (CHUGAI SEIYAKU KABUSHIKI KAISHA, priority 2022, dated 2024)
